Laboratory results taken from ChEMBL document CHEMBL4130523, “Targeting the Allosteric Site of Oncoprotein BCR-ABL as an Alternative Strategy for Effective Target Protein Degradation” (ACS Med Chem Lett, 2017).

Chains of the proteins cited; added tags and fusions are not shown.
UniProt P00519, whole entry: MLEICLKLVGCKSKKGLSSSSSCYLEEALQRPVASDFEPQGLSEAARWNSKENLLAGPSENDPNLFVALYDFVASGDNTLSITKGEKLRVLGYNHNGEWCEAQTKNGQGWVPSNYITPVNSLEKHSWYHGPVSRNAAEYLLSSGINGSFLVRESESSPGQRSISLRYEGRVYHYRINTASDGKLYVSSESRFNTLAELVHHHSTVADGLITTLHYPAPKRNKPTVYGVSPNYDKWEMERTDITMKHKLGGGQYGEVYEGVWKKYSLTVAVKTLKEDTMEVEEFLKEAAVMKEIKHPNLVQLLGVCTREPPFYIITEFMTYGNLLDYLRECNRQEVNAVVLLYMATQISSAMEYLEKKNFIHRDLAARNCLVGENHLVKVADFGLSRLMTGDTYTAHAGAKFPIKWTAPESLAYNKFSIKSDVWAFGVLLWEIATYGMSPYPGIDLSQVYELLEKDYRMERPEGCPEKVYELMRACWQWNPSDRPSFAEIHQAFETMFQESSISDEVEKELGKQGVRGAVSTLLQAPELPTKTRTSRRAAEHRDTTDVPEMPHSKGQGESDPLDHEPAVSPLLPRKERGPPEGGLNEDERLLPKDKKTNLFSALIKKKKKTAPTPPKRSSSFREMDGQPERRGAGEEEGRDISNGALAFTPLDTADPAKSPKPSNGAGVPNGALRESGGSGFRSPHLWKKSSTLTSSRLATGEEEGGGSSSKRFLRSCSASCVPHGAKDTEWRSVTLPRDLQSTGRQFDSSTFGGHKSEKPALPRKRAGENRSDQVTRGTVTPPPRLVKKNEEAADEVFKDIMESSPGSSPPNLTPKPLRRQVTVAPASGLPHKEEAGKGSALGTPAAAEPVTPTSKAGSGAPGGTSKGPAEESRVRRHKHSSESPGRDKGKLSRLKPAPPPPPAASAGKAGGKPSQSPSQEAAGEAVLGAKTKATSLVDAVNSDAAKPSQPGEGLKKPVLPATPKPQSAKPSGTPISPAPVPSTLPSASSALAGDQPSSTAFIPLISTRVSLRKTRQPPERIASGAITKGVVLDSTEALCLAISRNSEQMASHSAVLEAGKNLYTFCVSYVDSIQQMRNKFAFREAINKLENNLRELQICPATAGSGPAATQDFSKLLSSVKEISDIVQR

Target: Tyrosine-protein kinase ABL1 (Homo sapiens, UniProt P00519)
Test: Inhibition of recombinant human His-tagged full length ABL1 allosteric site expressed in baculovirus expression system by TR-FRET assay

Structure (SMILES): O=C(NCCO)c1cccc(-c2cc(Nc3ccc(OC(F)(F)F)cc3)ncn2)c1
- IC50: 2 µM
